Data as given in patent US7507547B2, “Screening assays for antioxidants and antiproliferative compounds” (University of Massachusetts, priority 2004, dated 2009).

System: PC3 cells
Assay: NT-induced proliferation of PC3 cells (^3H-thymidine)
Format: cell-based
Settings: read-out: IC50 for inhibition of NT-induced proliferation; 24 hours, 10 nM NT

pIC50: < 5.00
Structure (SMILES): CCN1C(C)=C(C(C)=O)C(c2ccccc2)C(C(C)=O)=C1C

pIC50: −log10 of the molar value.
